Measurements: patent publication US5589513A, “Pharmaceutical composition and process for the preparation thereof” (Chinoin Gyogyszer es Vegyeszeti Termekek Gyara Rt., priority 1991, dated 1996)
“And” between values parts separate entries of the source, which are not always exact repeats. Equal entries are not always repeated. Structures can show the parent of a compound that is named as a salt.

Experiments:
[1] = test system: NA uptake, rat brain synaptosomas, HYPOTHALAMUS; assay: In vitro NA uptake inhibition on brain synaptosomes (hypothalamus); assay type: biochemical
[2] = test system: DA uptake, rat brain synaptosomas, STRIATUM; assay: In vitro DA uptake inhibition on brain synaptosomes (striatum); assay type: biochemical
MAO-B [3] = assay: Inhibition of MAO activity in brain nucleus free homogenates, 14C-PEA substrate; assay type: in vivo, domestic pig; conditions: pig; p. os 96 h; UG-111 48 h (patch 24 h); UG-167 72 h (patch 48 h); UG-191 96 h (patch 72 h)
Protocol: (§1) MAO activity was measured radiometrically according to the methods of Wurtman and Axelrod [Biochem. Pharmacol. 12. 1414-19; (1963)] with a slight modification [K. Magyar in: Monoamine Oxidases and their Selective Inhibition, Ed.: K. Magyar, Pergamon Press, Akademiai Kiado, Budapest, 11-21; (1980)].

[4] = Distribution of labelled deprenyl and p-fluoro-deprenyl in brain regions and plasma after oral administration; assay type: in vivo; conditions: rats
Description: The simultaneous presence and the equal quantities of the two labels indicate the unchanged molecule (the data relate to the molar concentrations calculated on the basis of the two labels). Because of the fast change observed in the injected ^3 H/^14 C ratio in the tissues, our experiments indicate a significant metabolite formation (amphetamine, methylamphetamine, p-fluoro-methylamphetamine and p-fluoro-amphetamine) and their presence in the brain.

MAO-B [5] = assay: Inhibition of MAO activity in liver, 14C-PEA substrate; assay type: in vivo, domestic pig; conditions: pig; p. os 96 h; UG-111 48 h (patch 24 h); UG-167 72 h (patch 48 h); UG-191 96 h (patch 72 h)
Protocol: as §1

[6] = test system: MAO-B activity of the platelets; assay: Inhibition of platelet MAO-B activity after per os and transdermal application; assay type: in vivo; conditions: pigs, 14C-PEA; for inhibition of MAO-B activity of the platelets (%), mean: n = 3
Protocol: as §1

C#CCN(C)[C@@H](C)Cc1ccccc1 [(+)-DEPR.]
IC50 [1]: 17 µM
IC50 [2]: 24 µM

CN[C@@H](C)Cc1ccccc1 [(+)-metamphetamine]
IC50 [1]: 0.35 µM
IC50 [2]: 0.6 µM

C#CCN(C)[C@H](C)Cc1ccccc1 [(-)-deprenyl, (-)N-(-1-phenyl-isopropyl)-N-methyl-propinylamine-hydrochloride]
inhibition of MAO activity (%) brain 14C-PEA (MAO-B [3]): 73.22 ± 8.13%
residence time of the unchanged molecule in the brain [4]: short residence time
time in which the unchanged compound was absorbed ([4]; deprenyl 1.5 mg/kg, p-fluoro-deprenyl 10 mg/kg): 15 min
IC50 [1]: 51 µM
inhibition of MAO activity (%) liver 14C-PEA (MAO-B [5]): 41.04 ± 7.62%
IC50 [2]: 100 µM
inhibition of MAO-B activity of the platelets (%), mean ([6]; 3 h, doses as printed per mode of application): 95.15%
inhibition of MAO-B activity of the platelets (%), single animals ([6]; 3 h, per os 10 mg, UG-111 10 mg 24 h, UG-167 20 mg 48 h, UG-191 30 mg 72 h): 97.77% and 92.52% and 0.0%
inhibition of MAO-B activity of the platelets (%), single animals ([6]; 6 h, doses as printed per mode of application): 86.04% and 96.51% and 95.63%
inhibition of MAO-B activity of the platelets (%), mean ([6]; 6 h): 92.73 ± 3.35%
inhibition of MAO-B activity of the platelets (%), single animals ([6]; 24 h, doses as printed per mode of application): 100.00%
inhibition of MAO-B activity of the platelets (%), mean ([6]; 24 h): 100 ± 0.0%
inhibition of MAO-B activity of the platelets (%), single animals ([6]; 48 h, doses as printed per mode of application): 82.67% and 70.48% and 69.93%
inhibition of MAO-B activity of the platelets (%), mean ([6]; 48 h): 74.36 ± 4.16%
inhibition of MAO-B activity of the platelets (%), single animals ([6]; 72 h, doses as printed per mode of application): 72.32% and 65.63% and 50.17%
inhibition of MAO-B activity of the platelets (%), mean ([6]; 72 h): 52.71 ± 6.56%
inhibition of MAO-B activity of the platelets (%), single animals ([6]; 96 h, doses as printed per mode of application): 0.0%

CN[C@H](C)Cc1ccccc1 [(-)-metamphetamine]
IC50 [1]: 3.5 µM
IC50 [2]: 42 µM
